Test results: article PMC7049730 (Nucleic Acids Research, 2019)

tested on: Nc1ncnc2c1ncn2[C@@H]1O[C@H](COP(=O)(O)OP(=O)(O)OP(=O)(O)O)[C@@H](O)[C@H]1O; test: purified protein; conditions: no DNA, 65 C, pH 7.5, 5 mM MgCl2, 80 mM NaCl, 0-300 μM ATP, cooperative (Hill fit)

| Substance | Km [µM] | kcat [s⁻¹] |
| --- | --- | --- |
| Pf MR^NBD complex (Mre11-Rad50^NBD) (Pyrococcus furiosus DSM 3638; DEL196-708/L828F) | 47.1 ± 2.2 | 0.014 ± 0.00033 |
| Pf MR^NBD complex (Mre11-Rad50^NBD) (Pyrococcus furiosus DSM 3638; D829A/DEL196-708) | 24.5 ± 1.0 | 0.0188 ± 0.00033 |
| full-length Pf MR complex (Mre11_2-Rad50_2) (Pyrococcus furiosus DSM 3638; D829N) | 43.9 ± 0.9 | 0.006 ± 0.00017 |
| Pf MR^NBD complex (Mre11-Rad50^NBD) (Pyrococcus furiosus DSM 3638; D829N/DEL196-708) | 44.6 ± 1.2 | 0.0277 ± 0.00033 |
| full-length Pf MR complex (Mre11_2-Rad50_2) (Pyrococcus furiosus DSM 3638; D829A) | 39.0 ± 0.7 | 0.00767 ± 0.00017 |
| full-length Pf MR complex (Mre11_2-Rad50_2) (Pyrococcus furiosus DSM 3638; L828F) | 49.2 ± 3.5 | 0.00433 ± 0.00017 |
| Pf MR^NBD complex (Mre11-Rad50^NBD) (Pyrococcus furiosus DSM 3638; DEL196-708) | 17.0 ± 0.9 | 0.00217 ± 0.00017 |
| full-length Pf MR complex (Mre11_2-Rad50_2) (Pyrococcus furiosus DSM 3638) | 19.8 ± 2.1 | 0.002 ± 0.00017 |
| full-length Pf MR complex (Mre11_2-Rad50_2) (Pyrococcus furiosus DSM 3638; L828A) | 36.7 ± 2.1 | 0.003 ± 0.00017 |
| Pf MR^NBD complex (Mre11-Rad50^NBD) (Pyrococcus furiosus DSM 3638; DEL196-708/L828A) | 53.2 ± 3.4 | 0.0105 ± 0.00033 |
